Columns and labels:
[1] = molecular target: T1, Heat shock protein HSP 90-alpha (Homo sapiens, UniProt P07900); test: Potency index, ratio of AUY-922 IC50 to test compound IC50 for inhibition of recombinant human full-length C-terminal Hsi-tagged HSP90alpha (1 to 732 residues) expressed in Escherichia coli
[2] = molecular target: T1, Heat shock protein HSP 90-alpha; test: Potency index, ratio of BIIB021 IC50 to test compound IC50 for inhibition of recombinant human full-length C-terminal Hsi-tagged HSP90alpha (1 to 732 residues) expressed in Escherichia coli

**Q.** For `CCN(C(=O)c1cc(C(C)C)c(O)cc1O)c1ccc(Cn2c(=O)c(F)cn(C3CCCO3)c2=O)cc1` (configuration not stated), which Ratio IC50 [1] is on record?
**A.** 2

**Q.** And the Ratio IC50 [2]?
**A.** 2

From ChEMBL document CHEMBL4765388, “Fluoropyrimidin-2,4-dihydroxy-5-isopropylbenzamides as antitumor agents against CRC and NSCLC cancer cells” (Eur J Med Chem, 2020)
